Values quoted from earlier work in patent publication US20220127682A1, “SELECTION AND TREATMENT OF CANCER WITH COMBINATION THERAPIES” (Massachusetts Institute of Technology, priority 2020, published 2022).

Chains of the proteins cited; added tags and fusions are not shown. Lines headed by an entry give the natural chain unless they say otherwise; changes in a name come on top.
UniProt Q9NYY3: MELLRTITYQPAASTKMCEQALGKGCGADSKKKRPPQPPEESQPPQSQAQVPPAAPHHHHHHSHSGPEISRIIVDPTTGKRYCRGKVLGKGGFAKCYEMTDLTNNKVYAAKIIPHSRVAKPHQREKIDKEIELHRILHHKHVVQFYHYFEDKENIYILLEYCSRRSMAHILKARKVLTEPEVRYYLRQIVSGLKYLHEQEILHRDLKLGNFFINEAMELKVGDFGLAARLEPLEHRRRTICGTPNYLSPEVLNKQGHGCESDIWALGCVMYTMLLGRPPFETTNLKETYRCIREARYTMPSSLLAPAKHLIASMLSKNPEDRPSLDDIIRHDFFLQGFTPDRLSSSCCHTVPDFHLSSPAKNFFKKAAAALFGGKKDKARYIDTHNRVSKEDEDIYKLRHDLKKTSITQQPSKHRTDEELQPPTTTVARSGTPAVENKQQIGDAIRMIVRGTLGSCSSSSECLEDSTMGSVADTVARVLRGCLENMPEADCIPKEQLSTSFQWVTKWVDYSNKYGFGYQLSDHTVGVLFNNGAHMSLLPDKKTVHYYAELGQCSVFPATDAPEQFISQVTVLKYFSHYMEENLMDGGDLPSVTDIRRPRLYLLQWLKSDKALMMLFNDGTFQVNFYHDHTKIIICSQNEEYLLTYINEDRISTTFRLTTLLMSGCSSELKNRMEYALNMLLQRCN
UniProt Q9H4B4: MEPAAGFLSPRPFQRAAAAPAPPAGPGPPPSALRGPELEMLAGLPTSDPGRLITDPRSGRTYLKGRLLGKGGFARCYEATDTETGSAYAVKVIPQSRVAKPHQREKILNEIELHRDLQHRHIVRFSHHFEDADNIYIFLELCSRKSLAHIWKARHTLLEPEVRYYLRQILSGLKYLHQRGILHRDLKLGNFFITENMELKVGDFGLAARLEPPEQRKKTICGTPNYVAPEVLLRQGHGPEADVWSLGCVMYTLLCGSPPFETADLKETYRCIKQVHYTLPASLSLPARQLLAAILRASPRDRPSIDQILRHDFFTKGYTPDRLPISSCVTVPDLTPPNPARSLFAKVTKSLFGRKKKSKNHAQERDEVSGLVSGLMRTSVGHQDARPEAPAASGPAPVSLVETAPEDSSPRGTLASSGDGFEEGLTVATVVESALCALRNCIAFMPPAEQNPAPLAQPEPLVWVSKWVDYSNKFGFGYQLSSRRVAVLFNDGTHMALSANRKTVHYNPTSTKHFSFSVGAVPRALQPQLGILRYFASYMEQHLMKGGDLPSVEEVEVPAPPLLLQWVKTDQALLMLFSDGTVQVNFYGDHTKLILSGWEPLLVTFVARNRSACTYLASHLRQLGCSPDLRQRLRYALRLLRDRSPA

Key:
[1] = biological target: Plk2 (Homo sapiens, UniProt Q9NYY3); details: relative to PLK1; cited from earlier work
[2] = biological target: Plk3 (Homo sapiens, UniProt Q9H4B4); details: relative to PLK1; cited from earlier work

For CC[C@@H]1C(=O)N(C)c2cnc(Nc3ccc(C(=O)N[C@H]4CC[C@H](N5CCN(CC6CC6)CC5)CC4)cc3OC)nc2N1C(C)C [BI6727, volasertib], the “selectivity against Plk2” value [1] is listed as 6 fold and the “selectivity against Plk3” value [2] is listed as 65 fold.
